Patent publication US6500802B1, “Peptidyl-2-amino-1-hydroxyalkanesulfonic acid cysteine protease inhibitors” (Cephalon, Inc., priority 1997, dated 2002)

Settings: pH 7.4

**Q.** For “Tetrahydroisoquinoline-2-carbonyl-L-leucyl-2-amino-1-hydroxy-3-phenylpropanesulfonic acid sodium Salt [Compound 2]”, which “Solubility” value is on record?
**A.** 37 mg/mL

**Q.** For `CC(C)[C@H](NC(=O)OCc1ccccc1)C(=O)NC(Cc1ccccc1)C(O)S(=O)(=O)[O-].[Na+]` (stereo partly drawn) [Compound 1, Benzyloxycarbonyl-L-valyl-2-amino-1-hydroxy-3-phenylpropanesulfonic acid sodium Salt], which “Solubility” value is on record?
**A.** 8.2 mg/mL
